Data from paper PMC6308944, “Anti-Candida albicans Activity of Thiazolylhydrazone Derivatives in Invertebrate and Murine Models” (Journal of Fungi, 2018).

What was measured:
G. mellonella larvae = test: Compound toxicity in G. mellonella; format: in vivo; details: uninfected larvae, 10 mg/kg, till 144 h post-treatment
Candida albicans CAN14 = test: Survival of C. albicans-infected G. mellonella; format: in vivo, Galleria mellonella; details: for survival of infected larvae: 7th day; for survival of infected larvae compared to untreated controls: all tested concentrations (5, 10 and 15 mg/kg)

| Substance | larvae survival, toxicity test (G. mellonella larvae) | survival of infected larvae (Candida albicans CAN14; 10 mg/kg) | survival of infected larvae (Candida albicans CAN14; 15 mg/kg) | survival of infected larvae compared to untreated controls (Candida albicans CAN14) | survival of infected larvae (Candida albicans CAN14; 5 mg/kg) |
| --- | --- | --- | --- | --- | --- |
| 2-((2-cyclopentylidene)hydrazino)-4-(4-methoxyphenyl)-thiazole [Compound 4] | 95% | 25% | 25% | significantly prolonged survival | – |
| 2-((2-cyclohexylidene)hydrazino)-4-(4-methoxyphenyl)-thiazole [Compound 3] | 95% | 37% | – | significantly prolonged survival | 37% |
